From patent US20210301011A1, “COMPOSITION FOR PROPHYLAXIS OR TREATMENT OF IL-8 RELATED DISEASES” (CHUGAI SEIYAKU KABUSHIKI KAISHA, priority 2016, published 2021)
Substitutions are numbered along the chain they refer to. Names may count otherwise. “And” between values parts separate entries of the source, which are not always exact repeats. Equal values may be shown once. Read-outs that look alike come from different tables or passages of the source.

Sequences of proteins named here, by UniProt entry; tags and fusion partners are left off. Residues count along the entry.
UniProt P10145, 23-99 limits assumed: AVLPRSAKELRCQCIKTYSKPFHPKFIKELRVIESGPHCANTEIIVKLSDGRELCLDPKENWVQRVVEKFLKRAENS

B1: H89/L118: pH-dependent anti-IL-8 antibody, H89-IgG1 heavy chain, L118-kOMT (SEQ ID NO:44) light chain (antibody)
heavy: QVQLVESGGGLVQPGGSLRLSCAASGFTFSDYYLSWVRQAPGKGLEWVGLIRNKANGYTREYSASVKGRFTISRDDSKNSLYLQMSSLKTEDTAVYYCARENHRYDVELAYWGQGTLVTVSSASTKGPSVFPLAPSSKSTSGGTAALGCLVKDYFPEPVTVSWNSGALTSGVHTFPAVLQSSGLYSLSSVVTVPSSSLGTQTYICNVNHKPSNTKVDKKV[human IgG1 Fc skipped]
light: DIQMTQSPSSLSASVGDRVTITCRASEIIYSYLAWYQQKPGKAPKLLIYHAKTHADGVPSRFSGSGSGTDFTFTISSLQPEDIATYYCKHHFGFPRTFGQGTKVEIKRTVAAPSVFIFPPSDEQLKSGTASVVCLLNNFYPREAKVQWKVDNALQSGNSQESVTEQDSKDSTYSLSSTLTLSKADYEKHKVYACEVTHQGLSSPVTKSFNRGEC
B2: Hr9: humanized anti-human IL-8 antibody, Hr9-IgG1 (SEQ ID NO:41) heavy chain, hWS4L-kOMT light chain (antibody)
heavy: B1 heavy with H103Y
light: B1 light with H50N, H54L, K89Q
B3: Hr9/L16: Hr9 variant, light chain mutation L54H (antibody)
heavy: B1 heavy with H103Y
light: B1 light with H50N, K89Q

Tests used:
human IL-8 [1] = biological target: T1, human IL-8 (Homo sapiens, UniProt P10145); test: Stability of human IL-8-neutralizing activity after storage in mouse plasma (human CXCR2-expressing cells); type: cell-based; settings: antibody 0.2 mg/mL in mouse plasma, 40° C., one and two weeks; human IL-8 2 nM
Experimental: Mouse plasma was collected from the blood of C57BL/6J (Charles River) by a method known to those skilled in the art. 200 μL of 200 mM PBS (Sigma, P4417) was added to 800 μL of mouse plasma to give 1 mL. Furthermore, sodium azide was added at a final concentration of 0.1% as an antiseptic. […] At this point, a portion of the sample was collected as the initial sample. The remaining sample was stored at 40° C. One week and two weeks after storage, a portion of each sample was collected, and they were used as the one-week-stored sample and the two-week-stored sample. All samples were frozen at −80° C. and stored until each analysis was performed.
Next, anti-IL-8 antibodies contained in mouse plasma were evaluated for their human IL-8-neutralizing activity as follows: CXCR1 and CXCR2 are known receptors for human IL-8. The PathHunter(registered trademark) CHO-K1 CXCR2 β-Arrestin cell line (DiscoveRx Co., Cat. #93-0202C2) expresses human CXCR2, and is a cell line artificially produced so as to emit chemiluminescence when human IL-8-mediated signals are transmitted. […]
Then, the above-mentioned cell line was used to examine whether the neutralizing activity of an antibody stored in mouse plasma was maintained. […] Next, a detection reagent was added according to the protocol of the product, and the relative chemiluminescence level was detected using a chemiluminescence detector. […]

human IL-8 [2] = biological target: T1, human IL-8; test: Mouse PK assay with increased dose of antibody (2 mg/kg or 8 mg/kg); type: in vivo, mice (C57BL/6J); settings: C57BL/6J mice
Experimental: A mixed solution of human IL-8 (2.5 μg/mL) and an anti-human IL-8 antibody (200 μg/mL or 800 μg/mL) was administered to the tail vein in a single dose of 10 mL/kg. At this time, since a sufficiently excessive amount of the anti-human IL-8 antibody is present compared to human IL-8, almost all of the human IL-8 are considered to be bound to the antibody. Blood was collected five minutes, seven hours, one day, two days, three days, seven days, 14 days, 21 days, and 28 days after the administration. The collected blood was immediately centrifuged at 15,000 rpm and 4° C. for 15 minutes to obtain plasma. The separated plasma was stored in a freezer set at −20° C. or below until measurements were taken.
Measurement of the human IL-8 concentration in mouse plasma was carried out by a method similar to that of Example 7-2. The resulting data on the human IL-8 concentration in plasma is shown in FIG. 16, and the values for human IL-8 clearance (CL) from mouse plasma are shown in Table 9.
The resulting data on the human IL-8 concentration in plasma is shown in FIG. 17, and the values of human IL-8 clearance (CL) from mouse plasma are shown in Table 11.

human IL-8 [3] = biological target: T1, human IL-8; test: Mouse PK assay: human IL-8 elimination after simultaneous administration of human IL-8 and anti-human IL-8 antibody; type: in vivo, mice (C57BL/6J); settings: C57BL/6J mice
Experimental: After simultaneous administration of human IL-8 and anti-human IL-8 antibodies to mice (C57BL/6J, Charles river), pharmacokinetics of human IL-8 were evaluated. A mixed solution of human IL-8 and an anti-human IL-8 antibody (10 μg/mL and 200 μg/mL, respectively) was administered in a single dose at 10 mL/kg to the tail vein. […] Blood was collected five minutes, two hours, four hours, seven hours, one day, two days, three days, seven days, 14 days, 21 days, and 28 days after the administration. The collected blood was immediately centrifuged at 15,000 rpm and 4° C. for 15 minutes to obtain plasma. The separated plasma was stored in a freezer set at −20° C. or below until measurements were taken.
The human IL-8 concentration in mouse plasma was determined by an electrochemiluminescence method. First, an anti-human IL-8 antibody (prepared in-house) having a mouse IgG constant region was dispensed into a MULTI-ARRAY 96-well Plate (Meso Scale Discovery), and was allowed to stand at room temperature for one hour. Then, a PBS-Tween solution containing 5% BSA (w/v) was used for blocking at room temperature for two hours to prepare an anti-human IL-8 antibody-immobilized plate. […] Subsequently, 50 μL of the mixed solutions were dispensed into each well of the anti-human IL-8 antibody-immobilized plate, and the solution was stirred at room temperature for one hour. […] Then, after one hour of reaction with a Biotin Mouse Anti-Human Igκ Light Chain (BD Pharmingen) at room temperature, and then one hour of reaction with SULFO-TAG Labeled Streptavidin (Meso Scale Discovery) at room temperature, Read Buffer T (×1) (Meso Scale Discovery) was dispensed, and measurements were performed immediately with SECTOR Imager 2400 (Meso Scale Discovery). The human IL-8 concentration was calculated based on the response in the calibration curve using the analytical software, SOFT Max PRO (Molecular Devices).
Administration to mice and blood collection, and measurement of the human IL-8 concentration in mouse plasma were carried out by the method shown in Example 7.

human IL-8 [4] = biological target: T1, human IL-8; type: binding
Experimental: The following two running buffers were used: • 0.05% tween 20, 20 mM ACES, 150 mM NaCl, pH 7.4; • 0.05% tween 20, 20 mM ACES, 150 mM NaCl, pH 5.8.
An appropriate amount of Protein A/G (PIERCE) was immobilized onto Sensor chip CM4 (GE Healthcare) by the amine coupling method and the antibodies of interest was captured. Next, human IL-8 was made to interact with the antibodies captured on the sensor chip by injecting a diluted human IL-8 solution and a running buffer (used as a reference solution). For the running buffer, any of the above-mentioned solutions was used, and the respective buffers were also used to dilute human IL-8. To regenerate the sensor chip, 10 mM glycine-HCl at pH 1.5 was used. All measurements were carried out at 37° C. KD (M) of each antibody for human IL-8 was calculated based on the association rate constant kon (1/Ms) and dissociation rate constant koff (1/s), which are kinetic parameters calculated from sensorgrams obtained by the measurements. The BIACORE T200 Evaluation Software (GE Healthcare) was used to calculate each parameter.

[5] = human IL-8 10 μg/mL + antibody 200 μg/mL, single dose 10 mL/kg tail vein

Molecule | human IL-8-neutralizing activity before and after storage in mouse plasma (human IL-8 [1]) | slower rate of human IL-8 elimination at 8 mg/kg compared to 2 mg/kg (human IL-8 [2]) | Human IL-8 CL (mL/d/kg), Average (N = 3) (human IL-8 [2]; Antibody Dose 2 mg/kg) [mL/day/kg] | Human IL-8 CL (mL/d/kg), Average (N = 3) (human IL-8 [2]; Antibody Dose 8 mg/kg) [mL/day/kg] | increase of rate of human IL-8 elimination (CL) as compared to H998/L63 (human IL-8 [3]; antibody 2 mg/kg) | Human IL-8 CL (mL/d/kg), Average (N = 3) (human IL-8 [3]; [5]) [mL/day/kg] | Human IL-8 CL (mL/d/kg), individual mice #1-#3 (human IL-8 [3]; [5]) | koff (human IL-8 [4]; pH 5.8) [s⁻¹] | kon (human IL-8 [4]; pH 5.8) [M⁻¹ s⁻¹] | koff (human IL-8 [4]; pH 7.4) [s⁻¹] | kon (human IL-8 [4]; pH 7.4) [M⁻¹ s⁻¹]
B1 | differences in the human IL-8-neutralizing activity before and after storage in mouse plasma were not observed | approximately 2 fold | 221.8 | 103.0 | about 19 fold | 465.1 | 472.2 mL/day/kg and 447.2 mL/day/kg and 476.0 mL/day/kg | – | – | – | –
B2 | differences in the human IL-8-neutralizing activity before and after storage in mouse plasma were not observed | – | – | – | – | – | – | – | – | – | –
B3 | – | – | – | – | – | – | – | 0.000197 | 39100 | 9.57e-05 | 890000
